{
  "source": "patent US20030125311A1",
  "about": "“Compounds capable of binding with the cytoskeleton” (priority 2002, published 2003)",
  "tested_on": "rat brain cytosol binding sites of pregnenolone",
  "test": "Competition trials for PREG [3H] binding in brain cytosol",
  "data": [
    {"substance": "DHEA sulfate", "values": [
      {"measurement": "competition for the binding of PREG [3H] (in words)", "value": "practically negligible effect"},
      {"measurement": "R.C.R. 50 (relative competition index)", "setting": "PREG = 100, 50% reduction of specific binding of 100 nM PREG [3H], mean±standard error, n=3", "value": 0.045}
    ]}
  ]
}
